# Experimental data reported in US9034622B2, “Preparation for photodynamic control of microorganisms and use thereof” (priority 2004, dated 2015).
# Like-named read-outs stand apart in the source and are kept apart here.
# Tests used:
# Prevotella intermedia = settings: prior to treatment <1.0 × 10^2; for bacterial count After irradiation 2: specimen removed after irradiation after rinsing out dye; for bacterial count After irradiation 1: specimen removed after irradiation with dye solution, 0.1% methylene blue + laser
# [1] = test system: Actinobacillus actinomycetemcom.; settings: for bacterial count After irradiation 2: specimen removed after irradiation after rinsing out dye; for bacterial count After irradiation 1: specimen removed after irradiation with dye solution, 0.1% methylene blue + laser
# [2] = test system: Fusobacterium nucleatum ssp.; settings: for bacterial count After irradiation 2: specimen removed after irradiation after rinsing out dye; for bacterial count After irradiation 1: specimen removed after irradiation with dye solution, 0.1% methylene blue + laser
# Porphyromonas gingivalis = settings: for bacterial count After irradiation 2: specimen removed after irradiation after rinsing out dye; for bacterial count After irradiation 1: specimen removed after irradiation with dye solution, 0.1% methylene blue + laser
# [3] = test system: Total (bacterial counts in periodontal pockets); settings: prior to treatment <4.2 × 10^8; for bacterial count After irradiation 2: specimen removed after irradiation after rinsing out dye; for bacterial count After irradiation 1: specimen removed after irradiation with dye solution, 0.1% methylene blue + laser
# Tannerella fosythensis = settings: for bacterial count After irradiation 2: specimen removed after irradiation after rinsing out dye; for bacterial count After irradiation 1: specimen removed after irradiation with dye solution, 0.1% methylene blue + laser
# [4] = coating of 200 μm, 1% methylene blue solution
# Treponema denticola = settings: for bacterial count After irradiation 2: specimen removed after irradiation after rinsing out dye; for bacterial count After irradiation 1: specimen removed after irradiation with dye solution, 0.1% methylene blue + laser
# [5] = Patient 1, prior to treatment <1.0 × 10^2
# [6] = Patient 2, prior to treatment <2.7 × 10^3
# [7] = Patient 1, prior to treatment <2.6 × 10^5
# [8] = Patient 2, prior to treatment <3.1 × 10^5
# [9] = Patient 1, prior to treatment <2.5 × 10^2
# [10] = Patient 2, prior to treatment <4.6 × 10^4
# [11] = Patient 1, prior to treatment <1.7 × 10^5
# [12] = Patient 2, prior to treatment <6.3 × 10^5
# [13] = Patient 1, prior to treatment <6.6 × 10^4
# [14] = Patient 2, prior to treatment <4.7 × 10^5
substance,measurement,setting,value
methylene blue,bacterial count After irradiation 2,Prevotella intermedia; Patient 1,<1.0 × 10^2
same,bacterial count After irradiation 1,Prevotella intermedia; Patient 1,<1.0 × 10^2
same,bacterial count After irradiation 2,Prevotella intermedia; Patient 2,<1.0 × 10^2
same,bacterial count After irradiation 1,Prevotella intermedia; Patient 2,<1.0 × 10^2
same,bacterial count After irradiation 2,[1]; [5],<1.0 × 10^2
same,bacterial count After irradiation 1,[1]; [5],<1.0 × 10^2
same,bacterial count After irradiation 2,[1]; [6],<1.0 × 10^2
same,bacterial count After irradiation 1,[1]; [6],<4.5 × 10^2
same,bacterial count After irradiation 2,[2]; [7],<2.8 × 10^2
same,bacterial count After irradiation 1,[2]; [7],<4.4 × 10^3
same,bacterial count After irradiation 2,[2]; [8],<2.5 × 10^2
same,bacterial count After irradiation 1,[2]; [8],<6.2 × 10^3
same,bacterial count After irradiation 2,Porphyromonas gingivalis; [9],<1.5 × 10^2
same,bacterial count After irradiation 1,Porphyromonas gingivalis; [9],<1.5 × 10^2
same,bacterial count After irradiation 2,Porphyromonas gingivalis; [10],<2.9 × 10^2
same,bacterial count After irradiation 1,Porphyromonas gingivalis; [10],<1.3 × 10^3
same,bacterial count After irradiation 2,[3]; Patient 1,<2.1 × 10^7
same,bacterial count After irradiation 1,[3]; Patient 1,<2.3 × 10^8
same,bacterial count After irradiation 2,[3]; Patient 2,<1.4 × 10^7
same,bacterial count After irradiation 1,[3]; Patient 2,<4.8 × 10^7
same,bacterial count After irradiation 2,Tannerella fosythensis; [11],<2.5 × 10^2
same,bacterial count After irradiation 1,Tannerella fosythensis; [11],<5.7 × 10^3
same,bacterial count After irradiation 2,Tannerella fosythensis; [12],<2.5 × 10^2
same,bacterial count After irradiation 1,Tannerella fosythensis; [12],<5.3 × 10^3
same,absorption of the light,[4],95%
same,bacterial count After irradiation 2,Treponema denticola; [13],<2.5 × 10^2
same,bacterial count After irradiation 1,Treponema denticola; [13],<6.6 × 10^3
same,bacterial count After irradiation 2,Treponema denticola; [14],<2.5 × 10^2
same,bacterial count After irradiation 1,Treponema denticola; [14],<4.1 × 10^3
